The test addresses T1, Phosphatidylinositol 4,5-bisphosphate 3-kinase catalytic subunit delta isoform (Homo sapiens, UniProt O00329).
T1 sequence (O00329 whole entry): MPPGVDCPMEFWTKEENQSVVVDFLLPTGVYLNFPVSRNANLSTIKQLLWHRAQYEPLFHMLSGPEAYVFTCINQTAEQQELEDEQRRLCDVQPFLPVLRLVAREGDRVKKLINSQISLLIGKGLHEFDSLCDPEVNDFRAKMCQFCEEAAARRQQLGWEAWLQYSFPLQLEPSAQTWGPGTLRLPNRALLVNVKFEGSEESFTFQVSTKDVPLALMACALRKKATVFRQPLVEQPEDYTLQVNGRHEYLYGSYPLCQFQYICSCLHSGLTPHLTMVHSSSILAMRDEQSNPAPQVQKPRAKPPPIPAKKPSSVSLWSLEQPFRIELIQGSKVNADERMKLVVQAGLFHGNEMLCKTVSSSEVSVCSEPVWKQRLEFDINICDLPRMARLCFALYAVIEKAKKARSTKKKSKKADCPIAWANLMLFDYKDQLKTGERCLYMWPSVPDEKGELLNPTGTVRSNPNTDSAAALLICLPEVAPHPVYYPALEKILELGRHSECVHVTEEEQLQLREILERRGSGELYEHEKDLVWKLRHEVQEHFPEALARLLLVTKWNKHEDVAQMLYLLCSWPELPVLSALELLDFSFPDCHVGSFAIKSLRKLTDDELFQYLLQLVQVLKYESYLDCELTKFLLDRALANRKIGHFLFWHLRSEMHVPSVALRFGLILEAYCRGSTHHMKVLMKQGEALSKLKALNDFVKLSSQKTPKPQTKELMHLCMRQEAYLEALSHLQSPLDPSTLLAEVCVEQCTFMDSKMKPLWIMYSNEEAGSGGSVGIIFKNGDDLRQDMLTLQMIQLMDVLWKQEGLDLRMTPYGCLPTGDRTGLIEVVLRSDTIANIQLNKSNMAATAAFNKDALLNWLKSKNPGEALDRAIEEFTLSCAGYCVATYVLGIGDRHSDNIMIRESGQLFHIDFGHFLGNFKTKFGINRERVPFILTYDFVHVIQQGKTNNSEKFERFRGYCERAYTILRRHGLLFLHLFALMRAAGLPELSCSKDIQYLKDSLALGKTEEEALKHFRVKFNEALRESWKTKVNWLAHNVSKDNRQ

The record followed here is ChEMBL document CHEMBL1157707, “Lead optimization of N-3-substituted 7-morpholinotriazolopyrimidines as dual phosphoinositide 3-kinase/mammalian target of rapamycin inhibitors: discovery of PKI-402” (J Med Chem, 2010).

A word on the IC50: it is the concentration that gives 50% inhibition. As to `CCn1nnc2c(N3CCOCC3)nc(-c3ccc(NC(=O)Nc4ccc(C(=O)N5CCN(C)CC5)cc4)cc3)nc21`, half-maximal inhibition (IC50) required 16 nM.
